This assay concerns the target T1, human PTP-1B (PTP-1B-GST fusion protein) (Homo sapiens, UniProt P18031).
T1 sequence (P18031 1-435): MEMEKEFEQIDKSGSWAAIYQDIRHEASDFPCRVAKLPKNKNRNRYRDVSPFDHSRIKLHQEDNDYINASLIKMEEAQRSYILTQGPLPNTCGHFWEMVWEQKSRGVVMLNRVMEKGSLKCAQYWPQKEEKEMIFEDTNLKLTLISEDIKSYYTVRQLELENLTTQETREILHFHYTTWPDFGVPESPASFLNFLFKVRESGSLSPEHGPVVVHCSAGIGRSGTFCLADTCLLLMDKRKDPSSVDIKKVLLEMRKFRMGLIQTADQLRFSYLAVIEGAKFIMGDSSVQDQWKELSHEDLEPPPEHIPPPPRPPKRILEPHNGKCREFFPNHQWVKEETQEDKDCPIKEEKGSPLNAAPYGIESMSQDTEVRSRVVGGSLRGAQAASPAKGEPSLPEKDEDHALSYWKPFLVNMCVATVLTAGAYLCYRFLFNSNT
Description: biochemical. The conditions noted are these: read-out: % inhibition in cell-free assay.

Drawing on patent US20060070135A1, “Compositions and methods for inhibiting the enzymatic activity of PTP-1B” (priority 1998, published 2006), this text covers inhibition for 1 compound.

Take `O=C1Nc2ccc(S(=O)(=O)Nc3ccc(NS(=O)(=O)c4ccc5c6c(cccc46)C(=O)N5)c4ccccc34)c3cccc1c23` [compound 18, 1,4-bis-(2-oxo-1,2-dihydrobenzo[cd]indole-6-sulfonylamino)-naphthalene]: the inhibition (usually the change of the read-out against control, counted positive when it falls) at 20 µM was 94%.
